This test relates to MDA-MB-468 breast. The test is described as follows: growth of human tumour cells (NCI), 48 h.

Structures are written as SMILES.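 Five concentrations, 48 hours, 96-well plates. GI50 marks 50% less growth. TGI denotes the concentration required for complete inhibition of growth.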

Regarding `COc1cccc([As]=O)c1` (configuration not stated), the GI50 was 142 nM and the TGI stood at 309 nM.

Values taken from PubChem BioAssay (NCI).
